{
  "sequences": {"note": "By UniProt entry, the sequences of proteins in these tests, tags left out.", "UniProt Q07820, whole entry": "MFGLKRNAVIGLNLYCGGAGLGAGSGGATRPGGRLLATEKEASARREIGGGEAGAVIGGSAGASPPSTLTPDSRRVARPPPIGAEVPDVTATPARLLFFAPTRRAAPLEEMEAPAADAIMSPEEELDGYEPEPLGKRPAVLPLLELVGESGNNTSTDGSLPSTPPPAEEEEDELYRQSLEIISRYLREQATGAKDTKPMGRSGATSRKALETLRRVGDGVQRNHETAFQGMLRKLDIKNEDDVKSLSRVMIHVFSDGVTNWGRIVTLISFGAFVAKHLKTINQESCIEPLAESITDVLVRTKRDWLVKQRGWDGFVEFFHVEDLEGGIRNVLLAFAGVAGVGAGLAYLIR"},
  "source": "PubChem BioAssay AID1418",
  "about": "(Emory University Molecular Libraries Screening Center, 2008)",
  "molecular_target": "Induced myeloid leukemia cell differentiation protein Mcl-1 (Homo sapiens) (UniProt Q07820)",
  "test": "blockers of Bid binding to Mcl-1 – biochemical, TR-FRET, dose response (AID 1418)",
  "conditions": "Mcl-1/Bid peptide binding, TR-FRET (europium/Dy647), 2 hr",
  "note": "Calls of active or inactive are those of the source. The rule behind the calls is not given here.",
  "data": [
    {"smiles": "Cc1ccc(OCC(C)C)c(CN(CCCl)CCCl)c1", "values": [
      {"measurement": "IC50", "result": "inactive: > 54 µM"}
    ]}
  ]
}
